According to patent publication US20110020272A1, “COMBINATION THERAPY FOR TREATING HEPATITIS VIRAL INFECTION” (priority 2009, published 2011):

What was measured:
[1] = system: Luc-ubi-neo/ET Replicon cells; experiment: Cytotoxicity in Replicon cells; type: cell-based, human; settings: 750 nM PI and 0.5 U/ml IFN
Experimental: (§1) Luc-ubi-neo/ET-cells were seeded and incubated with PI and IFN (Roferon A, Roche) for 24 hours on the following day. […] After a 24 hour combined incubation, the medium was changed and cells were incubated for another 48 hours with PI alone. After these 3 days of incubation, HCV RNA replication was determined with respect to the non-treated control.

[2] = system: sub-genomic HCV Con 1 isolate in Luc-ubi-neo/ET Replicon cells; experiment: HCV RNA replication in Luc-ubi-neo/ET Replicon cells, combined/sequential PI and IFN; type: cell-based; settings: initial experiments; IFN 0.5 U/ml, PI 500-1000 nM
Experimental: Replicon cells are in general Luc-ubi-neo/ET Replicon cells, which are derived from Huh7 cells and which harbor a sub-genomic HCV Con 1 isolate with a luciferase reporter gene. These so-called Replicon cells allow for in vitro screening of antiviral substances by autonomous HCV RNA replication.
as §1

HCV genotype 1 = settings: PEG-interferon alpha-2a monotherapy arm, after 14 days; previous relapse; cited from earlier work
[3] = 90 μg/week for 3.5 years; prior non response, advanced fibrosis/cirrhosis; cited from earlier work

| Substance | cytotoxicity [1] | inhibition of HCV RNA replication [2] | decline of HCV RNA (HCV genotype 1) [log 10] | rate of primary outcome (progression of liver disease) vs no treatment [3] |
| --- | --- | --- | --- | --- |
| IFN: interferon (Roferon A, Roche) used in the replicon experiments | no cytotoxicity is observed | only a low inhibition |  |  |
| PEG-interferon alpha-2a: pegylated interferon alpha-2a (40 kD) |  |  | 0.58 | no difference between the groups in the rate of any primary outcome |
